This is an account of results in PubChem BioAssay (Tox21).

Molecules are shown by their SMILES. Several values for one entry are separate records, joined by “and”; a condition that tells them apart may be missing. Equal values may be shown once. Only a part is listed here, and it is no random draw. Records with an inconclusive call do not appear. Activity calls are given as the source filed them. The call rests on the fitted dose curve; in most records, active means well fitted cell-killing curve with a large enough effect in the repeat runs; inconclusive means weak or mixed curves, or effect the other way; inactive means flat fitted curve, though single readings scatter.
On the % scale 0 is the no-effect control and ±100 the full control effect.

The first experiment can be described thus: qHTS assay to identify small molecule agonists of the androgen receptor (AR) signaling pathway in the presence of an antagonist - cell viability counter screen (AID 1259379). Further: nearly all actives have a fitted effect of over 25% in size. Particulars: MDA-kb2 viability, CellTiter-Fluor, 16 h; at 42.5 µM (top of the series). The text has this:
National Center for Advancing Translational Sciences [NCATS]
NIH Chemical Genomics Center [NCGC]
U.S. Environmental Protection Agency [EPA]
National Institutes of Environmental Health Sciences [NIEHS]
National Toxicology Program [NTP]
U.S. Food and Drug Administration [FDA]
Androgen receptor (AR) is an important member of nuclear receptor family. Its signaling plays a critical role in AR-dependent prostate cancer and other androgen related diseases. Considerable attention has been given in the past decades to develop methods to study and screen for the environmental chemicals that have the potential to interfere with metabolic homeostasis, reproduction, developmental and behavioral functions. Therefore AR binding assay for screening against androgen agonists and antagonists can be used to identify potential endocrine disruptors.
MDA-kb2 cells (from ATCC, deposited by Wilson et al.) are human breast carcinoma cells that were stably transfected with a luciferase reporter gene under control of the MMTV promoter that contains response elements for both androgen receptor (AR) and glucocorticoid receptor (GR). This particular screening for measuring luciferase reporter gene activity using MDA-kb2 cells against Tox21 10K library compounds is a confirmation study on agonist mode screening in the presence of AR-antagonist compound (Nilutamide) at 3.0uM final concentration. The cytotoxicity of the compounds was tested in parallel by measuring the cell viability using CellTiter-Fluor assay system (Promega, Madison, WI) in the same wells.
Tox21 Assay Protocol Summary:
MDA-kb2 cells (cells cultured without CO2) were dispensed at 3,000 cells/well in 4uL of culture medium into white wall/solid-bottom 1536-well plates (Corning Life Sciences, Corning, NY) using a Multidrop Combi (Thermo Fisher Scientific Inc., Waltham, MA) dispenser. The assay plates were incubated at 37C and 0% CO2 for 5hr. One uL of 3.0uM (final concentration) Nilutamide or assay buffer was added using two separate tips of Flying Reagent Dispenser (FRD, Aurora Discovery, San Diego, CA). Then 23nL of compounds dissolved in DMSO at 15 concentrations and positive controls were transferred to the assay plates using a Pintool station (Wako, San Diego, CA). The assay plates were incubated at 37C and 0% CO2 for 16 hr. After 15hr incubation at 37C, 1uL/well CellTiter-Fluor reagent (Promega Corporation) was added to each well of the assay plates using FRD. After 1hr incubation at 37C and 0% CO2, the fluorescence signal was measured using a ViewLux plate reader (PerkinElmer, Shelton, CT).
A general note: In qHTS, concentration-response curves come from the screen itself.
Consider `OCCSCCO`, for which the activity change, negative = cytotoxicity was inactive: 0.799%. As to `Cc1cccc([N+](=O)[O-])c1[N+](=O)[O-]`, the activity change, negative = cytotoxicity was inactive: -6.21%.

The experiment is the same for the next values; noted with them: MDA-kb2 viability, CellTiter-Fluor, 16 h; at 92.4 µM (top of the series).
As for `COc1ccc([N+](=O)[O-])cc1[N+](=O)[O-]`, the activity change, negative = cytotoxicity is inactive: -0.481%. Consider `CCOP(=O)(CC)OCC`, for which the activity change, negative = cytotoxicity was inactive: 0.478%. Turning to `CP(=O)(O)OCCC[Si](O)(O)O`, the activity change, negative = cytotoxicity was inactive: 2.07%. `N=C(N)N[N+](=O)[O-]`: the activity change, negative = cytotoxicity was inactive: -1.44%.

Turning to `CC(C)OP(C)(=O)OC(C)C`, the activity change, negative = cytotoxicity is inactive: 1.28%. For the compound `OCCSCCO`, the activity change, negative = cytotoxicity is inactive: 0.646%.

For `CC(C)N(CCO)C(C)C`, the activity change, negative = cytotoxicity is inactive: 0.0662%. Regarding `[NH4+].[O-][Cl+3]([O-])([O-])[O-]`, the activity change, negative = cytotoxicity was inactive: 0.259% and inactive: -0.439%. Regarding `Cc1ccc([N+](=O)[O-])cc1[N+](=O)[O-]`, the activity change, negative = cytotoxicity was inactive: 0.309% and inactive: 5.55%. Take `O=[N+]([O-])OCC(CO[N+](=O)[O-])(CO[N+](=O)[O-])CO[N+](=O)[O-]`: the activity change, negative = cytotoxicity is inactive: -1.7%. Take `Cc1c([N+](=O)[O-])cccc1[N+](=O)[O-]`: the activity change, negative = cytotoxicity was inactive: -0.14% and inactive: 0.628%. As for `CCN(CC)CCCl`, the activity change, negative = cytotoxicity is inactive: -0.314%. With `O=[N+]([O-])c1cccc([N+](=O)[O-])c1`, the activity change, negative = cytotoxicity is inactive: -0.933%. As for `O=[N+]([O-])[O-].[NH4+]`, the activity change, negative = cytotoxicity was inactive: 2.74% and inactive: 0.872%. Take `COP(C)(=O)OC`: the activity change, negative = cytotoxicity was inactive: 1.12% and inactive: 3.4%. Still for that read-out and setting: under `N#CBr` stands inactive: 2.17%; under `CN(C)CCCl`, inactive: -1.58%.
